## Binding of CDR-mutated scFvs to a peptide of the spike HR2 region

Reference: Li et al. 2023, doi:10.1038/s41467-023-39022-2. File: FLAb, binding data.

Antigen: PDVDLGDISGINAS, a 14-residue peptide of the SARS-CoV-2 spike HR2 region.

The variants keep the heavy chain, the linker and the frameworks of Ab-14 (scFv order VH, the linker GGGGSGGGGSGGGGS, VL).
VH: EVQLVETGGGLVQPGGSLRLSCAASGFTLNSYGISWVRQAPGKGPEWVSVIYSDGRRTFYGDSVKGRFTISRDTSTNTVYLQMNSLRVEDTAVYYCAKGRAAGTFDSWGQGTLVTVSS
VL: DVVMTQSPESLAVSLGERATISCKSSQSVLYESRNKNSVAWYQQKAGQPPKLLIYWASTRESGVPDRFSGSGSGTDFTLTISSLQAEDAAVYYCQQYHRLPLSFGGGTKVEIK

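The parent was found by panning a naive human phage display library on the peptide. Designed CDR sequences, proposed from the first random library and measured here. Several design methods are mixed in this list. The scFvs were displayed on barcoded MATa yeast, the peptide on MATalpha yeast. Pairs that bind mate more often; barcode pairs of the diploids are counted by sequencing. The ratio of observed to expected reads was calibrated, replicate by replicate, on BCL2-family standards whose Kd was known from biolayer interferometry. Mating was done six times.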

Each variant is given by its three light chain CDRs, as the data file delimits them; those of the parent are KSSQSVLYESRNKNSVA, WASTRES, QQYHRLPLS.
Affinities are written as log10 Kd with Kd in nM; a lower number is a better binder.
A mean of the replicates is given; it leaves out those without a signal.
"ND" means that the variant was in the library but no mating with the target was seen in that replicate; the authors take this as a sign of poor binding, and no number exists.
Nonspecific signal, from three strains lacking the peptide, appeared in 4% of pairings of all light chain designs, centred on 2.64 (5% of these signals below 1.59); values are not corrected for it. For each scFv, signals with the empty controls are counted beside the result.
The parent sequence was in this pool as ten entries: three were never detected, three once, and four in most replicates, with averages from 0.34 to 2.37.
The authors' rule: three or more of the six replicates give a measured affinity, fewer mean a poor binder.
Values of this round are not directly comparable with the first-round values of the same sequences.

Variant KLSQSHLYDSRNKNSVA, NASTRES, QQYHRLPLS showed -0.17, -0.13, -0.35, -0.24, -0.31, -0.08 (mean -0.21; controls 2 of 18).
Variant IVSQLMLWGMHAKNSIA, EAEQRLN, QQYERLPLF showed 1.68, 1.14, 1.94, 0.96, 2.54, 1.97 (mean 1.70; controls 0 of 18).
Variant KLSMITGHMQQSKNNVA, EMVTREN, QQYNRLPLS showed 0.45, -0.06, -0.06, 0.39, 0.22, 0.06 (mean 0.17; controls 0 of 18).
Variant TISTLMRYETSLKNAIA, NAQTREQ, QQYHRLPIS showed 0.58, 0.98, 0.71, 0.47, 1.32, 0.94 (mean 0.83; controls 3 of 18).
Variant MSSQSVLYESENKNSVA, QASTREA, QQYHRLPLS showed 2.21, 0.68, 1.13, 0.84, 1.28, 1.31 (mean 1.24; controls 0 of 18).
Variant MISQLYNMGQFIINSVA, QASLRCN, QQYDRLPLM showed ND, ND, ND, ND, ND, ND (controls 0 of 18).
Variant KIGDTLNQLMTKKNNVA, DLVMREN, QQYFRLPLS showed 0.95, 0.52, 0.58, 0.46, 0.61, 0.39 (mean 0.58; controls 0 of 18).
Variant KISQMTRVGSTHHNSIA, EEATRAK, QQYHRLPLF showed 2.29, ND, 2.80, 2.18, 1.96, 2.15 (mean 2.28; controls 0 of 18).
Variant KLQQSTPYESRNKNSVA, SASTREE, QQYHRLPLS showed 0.13, -0.19, -0.22, -0.26, -0.40, -0.12 (mean -0.18; controls 1 of 18).
Variant KLEVSNLYESRNGNSVA, NASTRSS, QQYHRLPLS showed 0.27, 0.70, 0.23, 0.35, 0.28, 0.17 (mean 0.33; controls 0 of 18).
Variant KLSPSVLGMERAKNSVA, NASTRES, QQYHRLPLS showed 0.08, -0.05, -0.06, 0.01, -0.03, -0.03 (mean -0.01; controls 0 of 18).
Variant KVSEFMRGLMQRKDSIA, DNVTRGN, QQYDRLPLS showed ND, 1.29, ND, 2.18, 2.72, ND (mean 2.07; controls 1 of 18).
Variant KISINQMDEYKMRSNIA, NTSQKAM, QQYFHLPLM showed 0.51, 0.08, 0.14, -0.01, 0.22, 0.25 (mean 0.20; controls 2 of 18).
Variant KYSQSVLYESRNKNSVA, DASTRES, QQYHRLPLS showed 0.01, -0.23, -0.19, -0.35, -0.34, -0.20 (mean -0.22; controls 4 of 18).
Variant KLRSVTGTEKVNGNNVA, EMETRER, QQYNRLPLS showed 0.67, 0.54, 0.33, 0.46, 0.60, 0.51 (mean 0.52; controls 1 of 18).
Variant MISQLMNLGQFAINSVA, QASIRNA, QQYDRLPLV showed 2.41, 2.24, 1.29, 2.52, 1.52, 2.10 (mean 2.02; controls 0 of 18).
Variant SLPNARPDGSLQKNNVA, EGTCRSD, QQYMRLPLF showed 0.09, -0.15, -0.12, -0.07, -0.23, 0.09 (mean -0.06; controls 0 of 18).
Variant KSSQSVLYESRNKNSVA, EASNRES, QQYHRLPFS showed 1.34, 0.05, 0.30, -0.04, -0.11, 0.39 (mean 0.32; controls 0 of 18).
Variant MISQLMNMGQFAINSVA, QASIRNE, QQYDRLPLV showed 1.41, 1.60, 1.79, 2.20, 2.18, 1.86 (mean 1.84; controls 3 of 18).
Variant QIYQAMHTLMQQKNNVA, DVTNRTK, QQYFRLPLS showed 0.64, 0.31, 0.54, 0.46, 0.58, 1.10 (mean 0.61; controls 0 of 18).
Variant KISQSVLMEHRNKNSVA, DASLRES, QQYHRLPLS showed 0.47, -0.19, 0.52, 0.35, 0.12, 0.36 (mean 0.27; controls 1 of 18).
Variant HIQGYFTMPENANNSIA, EKHYRVR, QQYYRLPLA showed 0.94, 0.71, 0.94, 0.94, 1.09, 0.98 (mean 0.93; controls 3 of 18).
Variant KVPQSHLYESRNMNSVA, NASERES, QQYHRLPLS showed 0.43, 0.52, 0.40, 0.47, 0.38, 0.45 (mean 0.44; controls 1 of 18).
Variant KLLQSTLYESRNKNSVA, DASTRES, QQYHRLPLS showed 0.52, 0.02, -0.05, 0.28, 0.19, 0.46 (mean 0.24; controls 1 of 18).
Variant KLSQSWLYEDRPKNSVA, NASTRMS, QQYHRLPLS showed 0.22, 0.14, 0.00, -0.03, 0.00, 0.21 (mean 0.09; controls 3 of 18).
Variant KVSQSHLYESRNKNNVA, NASTRES, QQYHRLPLS showed 0.11, 0.09, -0.18, -0.19, -0.20, -0.05 (mean -0.07; controls 0 of 18).
Variant HMSMLTLQGMRHRNSVA, QMTTRVN, QQYDHLPLA showed 1.34, 1.52, 1.04, 1.21, 1.66, 1.36 (mean 1.35; controls 1 of 18).
Variant KLSQSVLYESRNKNSVA, WASTRES, QVYHRLPLS showed 2.78, 2.12, 1.82, 2.84, ND, 2.86 (mean 2.48; controls 4 of 18).
Variant KSSQSVLYESRDKNSVA, WAVTRES, QCYYRLPTS showed ND, ND, ND, ND, ND, 3.78 (controls 1 of 18).
Variant KLSQSEPYESRNKNSVA, NASQRES, QQYHRLPLS showed -0.02, -0.18, -0.03, -0.22, -0.22, 0.00 (mean -0.11; controls 0 of 18).

Top 4 of the variants detected in all replicates, tightest first:

CDR-L1	CDR-L2	CDR-L3	replicates, log10 nM	log10 Kd (nM), mean	signal with controls
KYSQSVLYESRNKNSVA	DASTRES	QQYHRLPLS	0.01, -0.23, -0.19, -0.35, -0.34, -0.20	-0.22	4/18
KLSQSHLYDSRNKNSVA	NASTRES	QQYHRLPLS	-0.17, -0.13, -0.35, -0.24, -0.31, -0.08	-0.21	2/18
KLQQSTPYESRNKNSVA	SASTREE	QQYHRLPLS	0.13, -0.19, -0.22, -0.26, -0.40, -0.12	-0.18	1/18
KLSQSEPYESRNKNSVA	NASQRES	QQYHRLPLS	-0.02, -0.18, -0.03, -0.22, -0.22, 0.00	-0.11	0/18